# In article PMC5355811 (Nature Communications, 2017):
# Values joined by “and” are separate entries in the source; they are usually repeats but may differ in a detail not shown here. Equal values may be shown once.
# Tests used:
# [1] = test system: Ba/F3 cells of EGFR-T790M/del19; experiment: Drug sensitivity screening at 100 nM, Ba/F3 EGFR-T790M/del19; type: cell-based; conditions: Mus musculus, BaF3, 72 h, read-out: Relative cell viability (ratio to DMSO control), del19/T790M
# Protocol: (§1) After the incubation, cell viability was measured using CellTiter-Glo assay. The relative cell viability was calculated as a ratio of each value to that of the DMSO control.
# [2] = test system: Ba/F3 cells of EGFR-del19; experiment: Drug sensitivity screening at 100 nM, Ba/F3 EGFR-del19; type: cell-based
# Protocol: as §1
compound,measurement,setting,value
"CNC(=O)c1cc(Oc2ccc(NC(=O)Nc3ccc(Cl)c(C(F)(F)F)c3)cc2)ccn1 [Sorafenib, sorafenib]",viability at 0.1 µM,[1],106%
same,Relative cell viability (% of DMSO control) in del19 Ba/F3 cells,[2]; 0.1 µM,137.444 and 117.128 and 107.552
same,viability at 0.1 µM,"[2]; Mus musculus, BaF3, 72 h, read-out: Relative cell viability (ratio to DMSO control), del19",121%
